From US20250319108A1, “COMBINATIONS” (AN2 Therapeutics, Inc., priority 2021, published 2025)

Columns and labels:
Test in all cases: Checkerboard synergy testing with EBO
Type in all cases: cell-based
Conditions in all cases: in combination with EBO, 7H9+5% OADC
[1] = system: M. avium ATCC 700898
[2] = system: M. avium 2285R
[3] = system: M. chimaera 20-S-05
[4] = system: M. intracellulare DNA000111
[5] = system: M. abscessus ATCC 19977
[6] = system: M. peregrinum ATCC 700686
[7] = system: M. intracellulare 20-S-13

SMILES | Summary Activity of EBO Drug Combinations (FIC index class) [1] | Summary Activity of EBO Drug Combinations (FIC index class) [2] | Summary Activity of EBO Drug Combinations (FIC index class) [3] | Summary Activity of EBO Drug Combinations (FIC index class) [4] | Summary Activity of EBO Drug Combinations (FIC index class) [5] | Summary Activity of EBO Drug Combinations (FIC index class) [6] | Summary Activity of EBO Drug Combinations (FIC index class) [7]
CC[C@H]1OC(=O)[C@H](C)[C@@H](O[C@H]2C[C@@](C)(OC)[C@@H](O)[C@H](C)O2)[C@H](C)[C@@H](O[C@@H]2O[C@H](C)C[C@H](N(C)C)[C@H]2O)[C@](C)(OC)C[C@@H](C)C(=O)[C@H](C)[C@@H](O)[C@]1(C)O [CLR, Clarithromycin] | I (I = Indifferent) | A (A = Additive) | I (I = Indifferent) | I (I = Indifferent) | I (I = Indifferent) | I (I = Indifferent) | 
NCC[C@H](O)C(=O)N[C@@H]1C[C@H](N)[C@@H](O[C@H]2O[C@H](CN)[C@@H](O)[C@H](O)[C@H]2O)[C@H](O)[C@H]1O[C@H]1O[C@H](CO)[C@@H](O)[C@H](N)[C@H]1O [AMK, Amikacin] | I (I = Indifferent) | I (I = Indifferent) | I (I = Indifferent) | I (I = Indifferent) | I (I = Indifferent) | A (A = Additive) | I (I = Indifferent)
